The text below walks through data of patent US10947213B1 (Merck Patent GmbH, priority 2015, dated 2021).

Amino acid sequences for entries named in this document (tags omitted). Residues count along the entry.
UniProt Q9NYK1, 27-1049 limits assumed: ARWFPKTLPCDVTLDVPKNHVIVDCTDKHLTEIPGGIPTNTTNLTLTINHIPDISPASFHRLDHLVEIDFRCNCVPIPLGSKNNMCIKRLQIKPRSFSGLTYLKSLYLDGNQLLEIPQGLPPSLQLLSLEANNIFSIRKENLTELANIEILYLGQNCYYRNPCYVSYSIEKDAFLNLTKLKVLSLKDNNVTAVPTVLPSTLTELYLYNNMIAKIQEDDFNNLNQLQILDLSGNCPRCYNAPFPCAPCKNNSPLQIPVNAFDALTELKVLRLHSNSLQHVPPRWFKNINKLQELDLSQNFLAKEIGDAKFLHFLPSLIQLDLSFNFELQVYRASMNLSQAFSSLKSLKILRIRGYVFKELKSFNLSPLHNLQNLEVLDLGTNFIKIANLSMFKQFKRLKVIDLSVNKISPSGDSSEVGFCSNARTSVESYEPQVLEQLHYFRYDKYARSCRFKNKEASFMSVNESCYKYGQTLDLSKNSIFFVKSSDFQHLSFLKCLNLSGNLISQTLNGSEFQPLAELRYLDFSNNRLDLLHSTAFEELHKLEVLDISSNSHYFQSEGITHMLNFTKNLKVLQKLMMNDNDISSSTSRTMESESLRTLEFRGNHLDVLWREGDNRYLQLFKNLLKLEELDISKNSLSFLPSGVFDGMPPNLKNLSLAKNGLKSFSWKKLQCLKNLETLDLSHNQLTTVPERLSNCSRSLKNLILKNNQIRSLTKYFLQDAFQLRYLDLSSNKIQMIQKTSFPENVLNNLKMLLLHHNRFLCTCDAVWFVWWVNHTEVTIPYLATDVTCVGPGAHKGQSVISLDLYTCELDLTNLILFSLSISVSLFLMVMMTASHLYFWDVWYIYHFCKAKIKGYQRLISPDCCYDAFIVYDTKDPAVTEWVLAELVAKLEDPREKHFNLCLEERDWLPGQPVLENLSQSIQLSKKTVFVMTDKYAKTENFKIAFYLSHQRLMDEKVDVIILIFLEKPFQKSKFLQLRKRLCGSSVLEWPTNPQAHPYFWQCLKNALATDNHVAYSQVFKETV

Each structure is given as a SMILES string.

The assay addresses TLR7/NFKb HEK cells (Homo sapiens, UniProt Q9NYK1). Put plainly: HEK Cell Assay (TLR7/NFKb reporter, Steady-Glo luciferase readout). As to conditions: read-out: Potency, 30 min compound preincubation, then R*48 agonist for 5 hours. As for the experimental part: Example 142: HEK Cell Assay
Into 384 CulturePlates (Corning 3707) was placed 5000 c/w of TLR7/NFKb HEK cells in 30 uL DMEM without Phenil red (gibco #31053) and 10% i.a. FCS and 2 mM L-ZGLutamin. The cells were incubated for 24 h at 37° C., 10% carbon dioxide and 90% relative humidity. 3 uL of controls, standards, and compounds were dispensed into wells, incubated for 30 min then 3 uL of R*48 agonist in 20 mM Hepes was added. After incubation for 5 hours, they were allowed to stand at room temperature for 15 min. To this was added 10 uL of Steady-Glo substrate reagent and shake assay plate for 5 min at 1500 rpm. The assay plate was allowed to sit for 30 min at room temperature and then the plate was read on EnVision.

Consider `C[C@H]1C[C@H](C(=O)NCCN2CCN(C)CC2)CN(c2ccc(C#N)c3nccnc23)C1` (relative stereo), for which the IC50 is below 1 µM.
